Where two headings read alike, the source gives them in different places.
Tested on: Plasmodium falciparum (Smith strain)
Conditions: for response: text: up to 150 mg/kg for three days; for Primary treatments cleared: animals cleared/treated; for Primary treatments cured: animals cured/treated

SMILES	response [%]	Primary treatments cleared (total 3.0 mg/kg (1.0 daily))	Primary treatments cured (total 3.0 mg/kg (1.0 daily))	Primary treatments cleared (total 30.0 mg/kg (10.0 daily))	Primary treatments cured (total 30.0 mg/kg (10.0 daily))	Primary treatments cleared (total 150.0 mg/kg (50.0 daily))	Primary treatments cured (total 150.0 mg/kg (50.0 daily))
[H]/N=C(\N/C(=N/[H])Nc1ccc(Cl)cc1)NC(C)C [Proguanil]	0	0/2	0/2	0/2	0/2	0/2	0/2
CC1(C)N=C(N)N=C(N)N1c1ccc(Cl)cc1 [Cycloguanil]	0	0/2	0/2	0/2	0/2	0/2	0/2
